Test system: HUVEC
Experiment: MTT cytotoxicity assay on HUVEC
Assay type: cell-based
Settings: compared with untreated control
Description: The biotinylated duramycin construct DLB was prepared as described in Example XV. The unmodified duramycin compound and DLB were tested for cytotoxic effects on HUVEC using an MTT assay.

duramycin
cytotoxic effects (MTT): dose-dependent toxicity

From patent publication US7678386B2, “Liposomes coated with selected antibodies that bind to aminophospholipids” (Board of Regents the University of Texas, priority 2002, dated 2010)
